Sequences of proteins named here, by UniProt entry; tags and fusion partners are left off. A change or cut given only in a name is not applied to a line headed by its entry.
UniProt P42336, whole entry: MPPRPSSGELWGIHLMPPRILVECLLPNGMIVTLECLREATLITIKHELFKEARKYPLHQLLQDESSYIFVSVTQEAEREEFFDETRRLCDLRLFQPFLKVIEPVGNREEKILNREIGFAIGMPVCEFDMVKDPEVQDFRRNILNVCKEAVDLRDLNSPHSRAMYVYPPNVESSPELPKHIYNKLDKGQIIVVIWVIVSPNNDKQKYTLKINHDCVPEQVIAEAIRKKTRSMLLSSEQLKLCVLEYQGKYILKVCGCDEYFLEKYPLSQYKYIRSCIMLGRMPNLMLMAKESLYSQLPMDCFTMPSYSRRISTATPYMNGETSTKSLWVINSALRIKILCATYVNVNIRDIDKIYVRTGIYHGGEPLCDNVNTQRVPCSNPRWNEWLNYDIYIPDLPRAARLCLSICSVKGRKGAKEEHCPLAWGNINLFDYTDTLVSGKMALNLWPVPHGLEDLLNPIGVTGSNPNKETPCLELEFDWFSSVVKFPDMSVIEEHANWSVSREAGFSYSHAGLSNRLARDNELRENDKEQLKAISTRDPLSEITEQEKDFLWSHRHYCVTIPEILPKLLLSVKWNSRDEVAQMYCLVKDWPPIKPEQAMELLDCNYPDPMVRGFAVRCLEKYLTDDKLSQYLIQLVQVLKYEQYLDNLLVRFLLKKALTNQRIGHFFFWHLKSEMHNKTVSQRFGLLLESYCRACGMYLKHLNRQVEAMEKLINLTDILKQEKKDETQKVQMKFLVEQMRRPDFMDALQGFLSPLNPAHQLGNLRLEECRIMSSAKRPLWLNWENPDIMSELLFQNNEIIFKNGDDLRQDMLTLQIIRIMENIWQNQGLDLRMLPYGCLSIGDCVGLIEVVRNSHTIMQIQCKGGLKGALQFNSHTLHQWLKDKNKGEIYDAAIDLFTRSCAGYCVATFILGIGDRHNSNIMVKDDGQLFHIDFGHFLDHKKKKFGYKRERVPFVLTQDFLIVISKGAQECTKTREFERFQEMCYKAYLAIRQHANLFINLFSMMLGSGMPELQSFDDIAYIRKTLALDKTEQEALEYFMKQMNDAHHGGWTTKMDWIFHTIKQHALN
UniProt P42338, whole entry: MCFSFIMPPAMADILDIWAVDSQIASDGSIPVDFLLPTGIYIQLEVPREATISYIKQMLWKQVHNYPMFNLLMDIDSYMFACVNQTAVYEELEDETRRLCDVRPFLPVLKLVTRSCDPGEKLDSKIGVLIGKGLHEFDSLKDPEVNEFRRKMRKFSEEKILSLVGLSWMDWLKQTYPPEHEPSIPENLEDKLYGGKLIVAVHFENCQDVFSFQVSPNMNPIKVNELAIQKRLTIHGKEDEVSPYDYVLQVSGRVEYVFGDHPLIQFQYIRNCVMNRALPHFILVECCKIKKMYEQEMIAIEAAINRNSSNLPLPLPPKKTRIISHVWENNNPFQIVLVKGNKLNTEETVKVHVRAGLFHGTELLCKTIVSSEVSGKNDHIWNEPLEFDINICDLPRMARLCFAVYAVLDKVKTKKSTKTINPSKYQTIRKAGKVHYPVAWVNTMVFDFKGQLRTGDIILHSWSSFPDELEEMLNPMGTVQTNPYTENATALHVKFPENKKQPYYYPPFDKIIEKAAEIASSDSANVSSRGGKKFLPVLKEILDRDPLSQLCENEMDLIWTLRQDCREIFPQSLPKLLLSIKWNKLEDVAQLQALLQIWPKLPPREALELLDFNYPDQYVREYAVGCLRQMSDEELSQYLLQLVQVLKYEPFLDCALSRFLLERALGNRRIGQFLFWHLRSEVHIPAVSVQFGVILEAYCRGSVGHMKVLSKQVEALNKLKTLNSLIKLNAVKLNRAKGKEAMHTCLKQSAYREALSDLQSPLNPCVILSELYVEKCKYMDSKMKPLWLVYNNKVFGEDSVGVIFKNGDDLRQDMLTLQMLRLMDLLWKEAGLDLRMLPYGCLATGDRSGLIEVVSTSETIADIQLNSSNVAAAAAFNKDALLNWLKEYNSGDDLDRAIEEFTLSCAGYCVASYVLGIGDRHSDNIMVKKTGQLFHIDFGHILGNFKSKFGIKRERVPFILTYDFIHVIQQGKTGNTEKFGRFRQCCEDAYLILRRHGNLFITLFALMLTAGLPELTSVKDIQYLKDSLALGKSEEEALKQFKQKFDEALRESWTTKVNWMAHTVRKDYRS
UniProt O00329, whole entry: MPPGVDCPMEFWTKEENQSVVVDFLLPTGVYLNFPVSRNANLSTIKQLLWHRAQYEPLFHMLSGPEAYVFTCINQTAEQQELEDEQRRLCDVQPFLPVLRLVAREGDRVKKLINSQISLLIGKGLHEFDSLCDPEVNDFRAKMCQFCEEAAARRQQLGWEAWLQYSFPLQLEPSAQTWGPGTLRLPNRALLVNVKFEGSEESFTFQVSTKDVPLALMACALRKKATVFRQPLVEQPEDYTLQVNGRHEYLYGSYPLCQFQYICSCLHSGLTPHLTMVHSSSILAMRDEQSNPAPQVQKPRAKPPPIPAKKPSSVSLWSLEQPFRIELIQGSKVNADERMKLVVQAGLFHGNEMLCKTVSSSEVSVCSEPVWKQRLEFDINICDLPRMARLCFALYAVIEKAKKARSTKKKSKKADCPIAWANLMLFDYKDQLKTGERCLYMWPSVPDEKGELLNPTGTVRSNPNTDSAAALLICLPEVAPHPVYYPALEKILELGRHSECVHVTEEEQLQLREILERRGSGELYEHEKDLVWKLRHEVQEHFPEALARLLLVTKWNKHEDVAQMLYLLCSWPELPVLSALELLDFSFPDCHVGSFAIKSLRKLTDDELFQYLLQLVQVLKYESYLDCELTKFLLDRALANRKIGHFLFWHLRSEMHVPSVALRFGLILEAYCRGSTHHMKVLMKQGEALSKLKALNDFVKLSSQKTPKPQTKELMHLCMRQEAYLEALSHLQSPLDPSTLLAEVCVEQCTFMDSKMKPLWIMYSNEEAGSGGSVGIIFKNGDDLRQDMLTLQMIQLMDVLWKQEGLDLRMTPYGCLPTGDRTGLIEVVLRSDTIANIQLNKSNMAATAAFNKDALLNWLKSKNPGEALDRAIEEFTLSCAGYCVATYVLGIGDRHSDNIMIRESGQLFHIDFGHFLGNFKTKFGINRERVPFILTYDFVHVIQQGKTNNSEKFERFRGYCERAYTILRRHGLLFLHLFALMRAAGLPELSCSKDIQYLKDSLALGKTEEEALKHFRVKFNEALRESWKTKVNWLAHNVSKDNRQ
UniProt P48736, whole entry: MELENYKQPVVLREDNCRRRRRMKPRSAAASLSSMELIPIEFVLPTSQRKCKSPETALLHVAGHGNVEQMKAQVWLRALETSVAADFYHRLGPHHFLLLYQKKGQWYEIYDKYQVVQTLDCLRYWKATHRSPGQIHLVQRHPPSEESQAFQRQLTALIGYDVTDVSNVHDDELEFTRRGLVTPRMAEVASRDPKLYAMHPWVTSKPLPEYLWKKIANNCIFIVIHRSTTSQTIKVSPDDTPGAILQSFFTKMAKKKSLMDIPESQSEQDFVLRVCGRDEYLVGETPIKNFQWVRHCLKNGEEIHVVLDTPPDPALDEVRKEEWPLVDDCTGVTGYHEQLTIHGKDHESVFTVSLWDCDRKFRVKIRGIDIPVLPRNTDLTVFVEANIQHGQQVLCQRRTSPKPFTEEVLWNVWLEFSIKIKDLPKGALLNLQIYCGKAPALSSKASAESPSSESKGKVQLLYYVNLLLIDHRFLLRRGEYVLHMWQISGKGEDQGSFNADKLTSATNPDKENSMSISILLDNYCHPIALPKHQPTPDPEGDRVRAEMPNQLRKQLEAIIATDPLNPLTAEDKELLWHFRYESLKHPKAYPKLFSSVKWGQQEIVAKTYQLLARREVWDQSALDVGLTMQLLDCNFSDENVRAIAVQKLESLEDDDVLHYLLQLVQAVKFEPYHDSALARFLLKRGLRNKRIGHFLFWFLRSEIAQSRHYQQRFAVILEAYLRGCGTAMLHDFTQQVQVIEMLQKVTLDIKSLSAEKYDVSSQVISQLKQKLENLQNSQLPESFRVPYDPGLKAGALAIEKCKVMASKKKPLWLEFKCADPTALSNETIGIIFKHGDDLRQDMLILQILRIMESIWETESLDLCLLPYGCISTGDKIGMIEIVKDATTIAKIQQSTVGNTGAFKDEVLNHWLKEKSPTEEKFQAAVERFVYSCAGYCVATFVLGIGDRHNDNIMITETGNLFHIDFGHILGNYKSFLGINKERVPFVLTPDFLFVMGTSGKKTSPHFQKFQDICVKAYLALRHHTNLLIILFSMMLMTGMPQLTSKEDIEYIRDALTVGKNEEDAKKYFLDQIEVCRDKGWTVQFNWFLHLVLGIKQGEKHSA
UniProt P27986, whole entry partner: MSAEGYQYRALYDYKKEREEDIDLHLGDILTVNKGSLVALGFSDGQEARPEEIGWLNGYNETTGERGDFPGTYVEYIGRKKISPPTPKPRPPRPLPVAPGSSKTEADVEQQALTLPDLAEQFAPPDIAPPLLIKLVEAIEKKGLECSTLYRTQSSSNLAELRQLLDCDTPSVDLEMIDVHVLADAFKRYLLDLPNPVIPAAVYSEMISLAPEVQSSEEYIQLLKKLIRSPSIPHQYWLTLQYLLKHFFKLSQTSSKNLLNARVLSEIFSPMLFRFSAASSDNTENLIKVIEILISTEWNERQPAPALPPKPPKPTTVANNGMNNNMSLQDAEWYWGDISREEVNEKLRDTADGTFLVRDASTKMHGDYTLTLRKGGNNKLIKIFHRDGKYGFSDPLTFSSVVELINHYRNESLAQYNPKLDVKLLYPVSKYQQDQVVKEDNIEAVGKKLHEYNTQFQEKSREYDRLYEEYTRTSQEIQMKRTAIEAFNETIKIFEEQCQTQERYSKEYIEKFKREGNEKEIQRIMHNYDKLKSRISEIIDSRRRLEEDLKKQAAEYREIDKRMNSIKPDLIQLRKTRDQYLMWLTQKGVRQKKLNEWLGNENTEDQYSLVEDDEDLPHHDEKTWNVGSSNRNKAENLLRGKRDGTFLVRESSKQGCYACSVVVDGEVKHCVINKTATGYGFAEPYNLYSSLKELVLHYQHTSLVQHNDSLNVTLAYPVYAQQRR

According to patent US20200317660A1, “Quinazolinone Compound and Application Thereof” (LUOXIN PHARMACEUTICAL (SHANGHAI) CO., LTD., priority 2017, published 2020):

Key:
PI3Kα = PI3Kα (Homo sapiens, UniProt P42336); test: In vitro test of enzyme activity (ADP-Glo lipokinase), PI3K alpha; conditions: read-out: PI3Kα IC50, 40 μM ATP, 50 μM PIP2:3PS, 120 min
PI3Kβ = PI3Kβ (Homo sapiens, UniProt P42338); test: In vitro test of enzyme activity (ADP-Glo lipokinase), PI3K beta; conditions: read-out: PI3Kβ IC50, 40 μM ATP, 50 μM PIP2:3PS, 120 min
PI3Kδ = PI3Kδ (Homo sapiens, UniProt O00329); test: In vitro test of enzyme activity (ADP-Glo lipokinase), PI3K delta; conditions: read-out: PI3Kδ IC50, 40 μM ATP, 50 μM PIP2:3PS, 120 min
PI3Kγ = PI3Kγ (Homo sapiens, UniProt P48736); test: In vitro test of enzyme activity (ADP-Glo lipokinase), PI3K gamma; conditions: read-out: PI3Kγ IC50, 25 μM ATP, 50 μM PIP2:3PS, 120 min
[1] = In vivo DMPK study in mice after a single administration; parameters: species or system female Balb/c mice; conditions: for Cl (clearance rate) / Intravenous injection T1/2 / Vd (apparent volume of distribution): intravenous 1 mg/kg; for F % (oral bioavailability): oral 10 mpk vs intravenous 1 mg/kg; for Oral DNAUC (area under the dose normalization curve) / Cmax: oral

SMILES | IC50 (PI3Kα) [nM] | IC50 (PI3Kβ) [nM] | IC50 (PI3Kδ) [nM] | IC50 (PI3Kγ) [nM] | Cl (clearance rate) [1] [mL/min/kg] | Intravenous injection T1/2 [1] [min] | Vd (apparent volume of distribution) [1] [L/kg] | F % (oral bioavailability) [1] [%] | Oral DNAUC (area under the dose normalization curve) ([1]; 10 mpk, 10 mg/kg) [nM · h/mpk] | Cmax ([1]; 10 mpk) [µM] | Oral DNAUC (area under the dose normalization curve) ([1]; 10 mpk) [nM · h/mpk] | Cmax ([1]; 2 mpk) [µM] | Oral DNAUC (area under the dose normalization curve) ([1]; 2 mpk) [nM · h/mpk]
COc1ncc(-c2ccc3ncn(CC(C)C(N)=O)c(=O)c3c2)cc1NS(=O)(=O)c1ccc(F)cc1Cl (single isomer, unassigned) [WX018] | 2.02 | 168 | 10.2 | 14.9 | 9.80 | 55.1 | 0.529 | 50.3 | 1599 |  |  |  | 
CCNC(=O)C(C)Cn1cnc2ccc(-c3cnc(OC)c(NS(=O)(=O)c4ccc(F)cc4Cl)c3)cc2c1=O (single isomer, unassigned) [WX060] | 3.49 | 653 | 19.6 | 21.9 | 12.8 | 16.7 | 0.222 | 30.7 |  | 9.13 | 695 |  | 
CNC(=O)C(C)Cn1cnc2ccc(-c3cnc(OC)c(NS(=O)(=O)c4sc(C)nc4C)c3)cc2c1=O (single isomer, unassigned) [WX068] | 0.47 | 54 | 0.98 | 5.49 | 5.49 | 138 | 0.229 | 18.4 |  | 10.6 | 1021 |  | 
COc1ncc(-c2ccc3ncn(CC(C)C(=O)NC4CCC4)c(=O)c3c2)cc1NS(=O)(=O)c1ccc(F)cc1Cl (single isomer, unassigned) [WX074] | 8.38 | 1560 | 17.8 | 27.4 |  |  |  |  |  |  |  |  | 
COc1ncc(-c2ccc3ncn(CC(C)C(=O)NC(C)C)c(=O)c3c2)cc1NS(=O)(=O)c1ccc(F)cc1Cl (single isomer, unassigned) [WX078] | 6.94 | 1700 | 15 | 29.5 |  |  |  |  |  |  |  | 2.92 | 787
COc1ncc(-c2ccc3ncn(CC(C)C(=O)NCCO)c(=O)c3c2)cc1NS(=O)(=O)c1ccc(F)cc1Cl (single isomer, unassigned) [WX080] | 1.72 | 260 | 11.7 | 10.9 |  |  |  |  |  |  |  |  | 
CNC(=O)C(C)Cn1cnc2ccc(-c3cnc(OC)c(NS(=O)(=O)c4cccc(C(F)(F)F)c4)c3)cc2c1=O (single isomer, unassigned) [WX097] | 4.37 | 678 | 25.3 | 45.6 |  |  |  |  |  | 24.7 | 2018 |  | 

Further lines, results first:

IC50 (PI3Kα) [nM] | IC50 (PI3Kβ) [nM] | IC50 (PI3Kδ) [nM] | IC50 (PI3Kγ) [nM] | Cl (clearance rate) [1] [mL/min/kg] | Intravenous injection T1/2 [1] [min] | Vd (apparent volume of distribution) [1] [L/kg] | F % (oral bioavailability) [1] [%] | Oral DNAUC (area under the dose normalization curve) ([1]; 10 mpk, 10 mg/kg) [nM · h/mpk] | Cmax ([1]; 10 mpk) [µM] | Oral DNAUC (area under the dose normalization curve) ([1]; 10 mpk) [nM · h/mpk] | Cmax ([1]; 2 mpk) [µM] | Oral DNAUC (area under the dose normalization curve) ([1]; 2 mpk) [nM · h/mpk] | SMILES
2.46 | 132 | 5.8 | 11.2 |  |  |  |  |  |  |  |  |  | CNC(=O)C(C)Cn1cnc2ccc(-c3cnc(OC)c(NS(=O)(=O)c4c(F)cccc4F)c3)cc2c1=O (single isomer, unassigned) [WX101]
23.6 | > 10000 | 294 | 428 |  |  |  |  |  |  |  |  |  | CNC(=O)C(C)Cn1cnc2cc(F)c(-c3cnc(OC)c(NS(=O)(=O)c4ccc(F)cc4Cl)c3)cc2c1=O (single isomer, unassigned) [WX121]
1.07 | 187 | 12.4 | 9.49 |  |  |  |  |  | 24 | 5704 |  |  | CNC(=O)C(C)Cn1cnc2ccc(-c3cnc(OC)c(NS(=O)(=O)c4cccc(Cl)c4Cl)c3)cc2c1=O (single isomer, unassigned) [WX151]
2.12 | 278 | 11.4 | 23 |  |  |  |  |  | 37 | 6560 |  |  | CNC(=O)C(C)Cn1cnc2ccc(-c3cnc(OC)c(NS(=O)(=O)c4ccc(Cl)cc4Cl)c3)cc2c1=O (single isomer, unassigned) [WX153]
